{"source": "patent EP1224299B1", "about": "“RECOMBINANT PROTEINS AND PEPTIDES FOR ENDOTOXIN BIOSENSORS, ENDOTOXIN REMOVAL, AND ANTI-MICROBIAL AND ANTI-ENDOTOXIN THERAPEUTICS” (priority 1999, dated 2001)", "key": {"[1]": {"conditions": "50 ml LPS solution of 1 and 0.05 EU/ml; LAL kinetic-QCL detection limit"}, "Escherichia coli": {"system": "Escherichia coli", "conditions": "time-kill kinetics tested on Escherichia coli; cited from earlier work"}}, "note": "Marks after values point to notes of the source that are not given here."}
{"compound": "CC[C@H](C)[C@H](NC(=O)[C@H](CCCCN)NC(=O)[C@@H](NC(=O)[C@H](CCCCN)NC(=O)[C@H](Cc1c[nH]cn1)NC(=O)[C@H](CCC(=O)O)NC(=O)[C@H](C)NC(=O)[C@@H](N)Cc1c[nH]cn1)C(C)C)C(=O)N[C@@H](CCCCN)C(=O)N[C@H](C(=O)N[C@@H](CCCCN)C(=O)N[C@@H](CCC(N)=O)C(=O)N[C@@H](CCCCN)C(=O)N[C@@H](Cc1ccc(O)cc1)C(=O)NCC(=O)N[C@@H](CCC(N)=O)C(=O)N[C@@H](Cc1ccccc1)C(=O)N1CCC[C@H]1C(=O)N[C@@H](CCC(N)=O)C(=O)NCC(=O)N[C@H](C(=O)N[C@@H](CCC(=O)O)C(=O)N[C@H](C(=O)N[C@H](C(=O)N[C@@H](Cc1ccc(O)cc1)C(=O)N[C@H](C(=O)N[C@@H](CS)C(=O)N[C@@H](CO)C(=O)NCC(=O)N[C@@H](CC(N)=O)C(=O)N[C@@H](Cc1ccc(O)cc1)C(=O)N[C@@H](Cc1ccccc1)C(=O)N[C@@H](CC(C)C)C(=O)N[C@@H](CCSC)C(=O)O)[C@@H](C)O)[C@@H](C)O)C(C)C)[C@@H](C)O)C(C)C", "note": "[S3Δ]", "values": [{"measurement": "unbound LPS remaining in the flowthrough", "setting": "[1]", "result": "< 0.005", "unit": "EU/ml"}]}
{"compound": "Buforin II", "values": [{"measurement": "Killing rate", "setting": "Escherichia coli", "result": "30^d min"}]}
